The record followed here is ChEMBL document CHEMBL5244202, “Structural evolution of toll-like receptor 7/8 agonists from imidazoquinolines to imidazoles” (RSC Med Chem, 2021).

The species named for the test is Homo sapiens. The test is described as follows: Selectivity index, ratio of EC50 for agonist activity at TLR8 (unknown origin) to EC50 for agonist activity at TLR7 (unknown origin).

The structures appear in SMILES notation.

Regarding `CCCN(CCC)C(=O)C1=Cc2ccc(-c3ccc(C(=O)N4CCCC4)cc3)cc2N=C(N)C1`, the Ratio EC50 is 50.
